In BindingDB's records for 14684324:

Columns and labels:
[1] = molecular target: Kappa-type opioid receptor (Homo sapiens, UniProt P41145); assay: Concentration required to stimulate [35S]GTP-gamma-S, binding to human opioid receptor kappa 1 in cell membrane
Nociceptin receptor = Nociceptin receptor (Homo sapiens, UniProt P41146); assay: Concentration required to stimulate [35S]GTP-gamma-S, binding to human NOP receptor in cell membrane
Mu-type opioid receptor = Mu-type opioid receptor (Homo sapiens, UniProt P35372); assay: Concentration required to stimulate [35S]GTP-gamma-S, binding to human opioid receptor mu 1 in cell membrane

Row | SMILES | EC50 [1] [µM] | EC50 (Nociceptin receptor) [µM] | EC50 (Mu-type opioid receptor) [µM]
1 | O=c1[nH]c2ccccc2n1[C@@H]1CCN2[C@H](CCC[C@H]2C2CCCCC2)C1 | 0.021 | 0.678 | > 10
2 | O=c1[nH]c2ccccc2n1[C@H]1CCN2[C@H](CCC[C@H]2C2CCCCC2)C1 | > 10 | > 10 | > 10
